## Yeast mating assay 2: variants of the scFv Ab-91

Values reported by Engelhart et al. 2022, doi:10.1038/s41597-022-01779-4 (FLAb copy).

Target peptide (SARS-CoV-2 spike, HR2 region): PDVDLGDISGINAS

Parent: Ab-91, a human scFv built as VL, a 15-residue (Gly4Ser)3 linker, VH. Only the CDRs of the heavy chain vary.
VL: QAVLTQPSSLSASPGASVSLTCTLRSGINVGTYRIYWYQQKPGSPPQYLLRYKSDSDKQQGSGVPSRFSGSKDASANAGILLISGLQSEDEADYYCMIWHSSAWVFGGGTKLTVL
VH: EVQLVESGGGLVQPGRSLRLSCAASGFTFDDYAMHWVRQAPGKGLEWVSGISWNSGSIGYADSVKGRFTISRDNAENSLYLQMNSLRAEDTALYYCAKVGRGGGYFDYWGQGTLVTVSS

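Phage display of a naive human antibody library on the peptide gave the parent. Library AAYL51 holds single substitutions and randomly drawn double and triple substitutions in the CDRs. AlphaSeq pools MATa yeast showing the antibodies with MATalpha yeast showing the peptide. After mating in shaken culture at 30 °C for 16 h, diploids were selected and their barcode pairs sequenced. The ratio of observed to expected reads was calibrated, replicate by replicate, on BCL2-family standards whose Kd was known from biolayer interferometry. There are three technical replicates.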

The parent's heavy chain CDRs are GFTFDDYAMH, GISWNSGSIGYADSVK, VGRGGGYFDY; each variant's own CDRs replace them letter for letter. Numbers give log10(Kd / nM), so 0 is 1 nM and 3 is 1 µM. Smaller is tighter. A mean of the replicates is given; it leaves out those without a signal. "n.d." marks a missing value. The strain was present, yet no cells mated with the target were sequenced in that replicate, which points to weak or no binding.

| CDR-H1 | CDR-H2 | CDR-H3 | replicates, log10 nM | log10 Kd (nM), mean | empty controls |
|---|---|---|---|---|---|
| GFTDDDYAMH | MISWNSGSIGYADSVK | VGRGGGYFDY | n.d. n.d. n.d. | n.d. | 0/9 |
| GFTFDDYAMH | GISWNQGSIGYADSVK | FGRGGGYFDY | 2.57 1.94 2.37 | 2.29 | 1/9 (3.45) |
| GFGFDDYAMH | GISWNSGHSGYADSVK | VGRGGGYFDY | 3.99 4.81 2.42 | 3.74 | 2/9 (4.10) |
| GFTFDDYAMP | GISWNLGSIGYKDSVK | VGRGGGYFDY | 4.59 n.d. n.d. | 4.59 | 1/9 (5.03) |
| GFTFWDYAMH | GIIWNSGWIGYADSVK | VGRGGGYFDY | 3.76 5.89 5.44 | 5.03 | 5/9 (4.21) |
| GFTFDDYAMH | GISWNSGPIGYAPSVK | VGRGGGIFDY | 4.61 6.16 5.50 | 5.42 | 3/9 (4.50) |
| GATFDDYAMH | GISWNSGSIGYADSVK | VGRGGGYMFY | 4.54 3.86 n.d. | 4.20 | 2/9 (4.47) |
| GFTFDDYAMH | GISWRYGSIGYADSVK | VFRGGGYFDY | n.d. n.d. n.d. | n.d. | 2/9 (4.67) |
| SKTFDDYAMH | GISWNSGSIGYADSVK | VGRGGGYFDA | n.d. n.d. n.d. | n.d. | 0/9 |
| GFTFDDYAMH | GISWNDGSIGYADSVK | TGRGGGYFDY | n.d. n.d. n.d. | n.d. | 0/9 |
| GFTFDDDAMH | GISWNSGEIGYADSVK | VRRGGGYFDY | n.d. n.d. n.d. | n.d. | 0/9 |
| GFTFKNYAMH | GISWNSGSIGYADSVK | VGRGGGYFDY | 0.99 0.78 0.41 | 0.73 | 4/9 (3.91) |
| GFTFDDYAMH | GISWNSGSIGYADTVK | VGRGVGYFDG | 3.87 3.84 n.d. | 3.86 | 6/9 (4.26) |
| GFTFDTYAMH | GISWDSGSIGYADSVK | VGRGCGYFDY | 4.93 n.d. n.d. | 4.93 | 2/9 (4.84) |
| GFTFDDYAMH | GISWNSGSIGTADEVK | WGRGGGYFDY | 2.61 2.34 2.83 | 2.59 | 2/9 (4.12) |
| GMTFDDYAMH | GISWNSGSIGYADSVK | VGRSGGYFDY | n.d. n.d. n.d. | n.d. | 0/9 |
| GFTFDDYAMH | GISWNHGSIGYADSVK | VDRGGGQFDY | n.d. 4.34 4.06 | 4.20 | 0/9 |
| GATFDDYYMH | GIHWNSGSIGYADSVK | VGRGGGYFDY | 4.44 4.84 n.d. | 4.64 | 2/9 (4.36) |
| GFTFDDYAMH | DISYNSGSIGYADSVK | VGRAGGYFDY | n.d. n.d. n.d. | n.d. | 0/9 |
| GFTFDDYAMA | GISWNSMSIGYADSVK | VSRGGGYFDY | 6.31 4.38 6.17 | 5.62 | 6/9 (5.09) |
| GITFDDYAMH | GVSWNSGSIGYADSVK | VGRGGGYFDY | n.d. n.d. n.d. | n.d. | 0/9 |
| GFTFDHYAMH | GISWNSFSIGYADSKK | VGRGGGYFDY | n.d. n.d. n.d. | n.d. | 0/9 |
| GFTFDDYAME | WISWNSGSIGYADSVK | VGRGGGYFDY | 4.88 5.41 n.d. | 5.15 | 0/9 |
| GFTFHDYAMW | GISWNSGSIGYADSVK | VGRGGGYFDY | 5.45 n.d. n.d. | 5.45 | 1/9 (4.60) |
| GMTFDDYAMH | GITWNSGSIGYADSVK | VGRGGGYFDY | n.d. n.d. n.d. | n.d. | 1/9 (3.11) |
| GFTFDDYFMH | GICWNSGSIGYADSVK | TGRGGGYFDY | 4.40 4.41 4.77 | 4.53 | 7/9 (5.00) |
| GFMFDDYAMC | GISWNSGSIGYADSVK | VGRGGGYFRY | n.d. n.d. n.d. | n.d. | 0/9 |
| GFTFMDYAMH | GISWNSGSIGYADSVN | VGDGGGYFDY | n.d. 3.36 3.67 | 3.51 | 1/9 (4.16) |
| GFTFDDYAMH | GISWPSGSIGYADSVK | VGRGSGSFDY | n.d. 4.55 n.d. | 4.55 | 1/9 (3.73) |
| GFTFDDYAMH | GDSWNSGSIGYADSVK | GGRGGGYFNY | 3.96 n.d. n.d. | 3.96 | 5/9 (4.14) |
| GFTFVDYAMH | GISWNSGSQGYADSNK | VGRGGGYFDY | n.d. n.d. n.d. | n.d. | 1/9 (3.39) |
| LFTFADYAMH | GFSWNSGSIGYADSVK | VGRGGGYFDY | 5.78 n.d. n.d. | 5.78 | 5/9 (5.10) |
| GFTRDDYAMH | GISWNSGSIGYADSVK | VGNGGGQFDY | n.d. n.d. n.d. | n.d. | 4/9 (4.29) |

For reference, 2 entries of the list once more:

| CDR-H1 | CDR-H2 | CDR-H3 | replicates, log10 nM | log10 Kd (nM), mean | empty controls |
|---|---|---|---|---|---|
| GFTFMDYAMH | GISWNSGSIGYADSVN | VGDGGGYFDY | n.d. 3.36 3.67 | 3.51 | 1/9 (4.16) |
| GFTFDDYAMH | DISYNSGSIGYADSVK | VGRAGGYFDY | n.d. n.d. n.d. | n.d. | 0/9 |

As a blank, each scFv also met three strains without target: over library AAYL51, 21% of these pairings were detected, typically at 4.54 and seldom below 3.26. For each scFv, signals with the empty controls are counted beside the result, with their mean in brackets. In this assay the parent's reference entry averaged 1.86; its copy inside this library read 0.88.